Consider one substance from patent US5972636A (priority 1997, dated 1999).

For experiment [1], the system named is new protease (multipain) from skeletal muscle. To be noted: Table III; None = 100; 2 mM of the nucleotides or 10 mM PPi; 37° C. 1 hour.
The subject of experiment [2] is 1500 kDa complex (proteasome-multipain). The experiment is described as follows: Degradation of Ub-125I-lysozyme by the 1500 kDa proteasome-multipain complex. The settings on record: Table VIII; None = 100; 2 mM of the nucleotide or 10 mM PPi.

Take PPi: the “Relative activity (%), degradation of Ub-125I-lysozyme by the new activity” value in experiment [1] is recorded as 118%. The “Realtive Activity (%) Complex, Ub-lysozyme degradation” value in experiment [2] came to 113%.
